Test system: B-Raf inhibitor resistant cells A375 or Lu1205R
Assay: Growth in soft agar of B-Raf inhibitor resistant cells
Type: cell-based, human
Conditions: two weeks in soft agar
Method: Melanoma cells A375 and Lu1205 were cultured in Dulbecco's modified Eagle's medium (DMEM) supplemented with 10% fetal bovine serum (FBS), and penicillin-streptomycin. The melanoma UACC cell lines (UACC91, UACC502, UACC612, UACC647, and UACC1113) were maintained in Rosewell Park Memorial Institute Medium (RPMI1640) supplemented with 10% FBS and penicillin-streptomycin.

**Q.** With `CC(C)(C)c1nc2c3cc[nH]c(=O)c3c3cc(F)ccc3c2[nH]1` [Pyridone 6] as the molecule, how does the “growth in soft agar” value read?
**A.** The value was “did not inhibit growth”.

— patent US20180214449A1, “CANCER THERAPY USING JAK INHIBITOR IN COMBINATION WITH MAPK INHIBITORS” (UBRX, INC., priority 2015, published 2018)
